Assay results as given in patent US6936585B2, “Corticotropin releasing factor 2 receptor agonists” (priority 2002, dated 2005).

Key:
CRF2R = molecular target: T1, CRF2R (Homo sapiens, UniProt Q13324); assay: CRF2R agonist activation (EC50 / Emax), called comparative CRF binding; type: cell-based; conditions: for Emax: read-out: CRF2R Emax
T1 sequence (Q13324 1-411): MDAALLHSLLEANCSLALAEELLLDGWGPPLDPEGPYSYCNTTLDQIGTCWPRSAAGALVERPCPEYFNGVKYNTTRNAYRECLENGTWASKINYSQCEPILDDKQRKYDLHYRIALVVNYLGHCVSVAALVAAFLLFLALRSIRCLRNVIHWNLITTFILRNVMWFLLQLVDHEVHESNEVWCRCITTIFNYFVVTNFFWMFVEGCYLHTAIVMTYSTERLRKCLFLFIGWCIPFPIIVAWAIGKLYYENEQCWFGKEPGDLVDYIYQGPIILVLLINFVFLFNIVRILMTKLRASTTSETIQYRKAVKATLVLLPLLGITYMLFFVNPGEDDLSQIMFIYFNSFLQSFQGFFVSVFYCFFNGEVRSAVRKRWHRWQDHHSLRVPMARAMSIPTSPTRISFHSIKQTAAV
Procedure, shortened: (§1)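 Agonism at each human CRF receptor subtype is inferred from increased cAMP relative to vehicle, using cells expressing that subtype and either lysate cAMP measurement or a cAMP response element reporter.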

CRF1R = molecular target: T2, CRF1R (Homo sapiens, UniProt P34998); assay: CRF1R agonist activation (EC50 / Emax), called comparative CRF binding; type: cell-based; conditions: for Emax: read-out: CRF1R Emax; for EC50: CRF1R EC50
T2 sequence (P34998 24-415): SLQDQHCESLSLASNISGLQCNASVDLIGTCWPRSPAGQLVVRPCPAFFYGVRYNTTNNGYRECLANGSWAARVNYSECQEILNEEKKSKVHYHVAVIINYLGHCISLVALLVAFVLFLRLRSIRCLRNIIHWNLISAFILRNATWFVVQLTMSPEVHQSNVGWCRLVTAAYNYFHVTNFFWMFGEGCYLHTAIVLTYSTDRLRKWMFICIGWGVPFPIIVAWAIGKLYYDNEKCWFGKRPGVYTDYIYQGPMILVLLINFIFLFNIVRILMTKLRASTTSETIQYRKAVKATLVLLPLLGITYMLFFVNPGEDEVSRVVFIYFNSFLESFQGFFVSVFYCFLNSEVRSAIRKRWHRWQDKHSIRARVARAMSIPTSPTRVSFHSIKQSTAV
Procedure, shortened: as §1

Structure (SMILES)	Emax (CRF2R)	Emax (CRF1R)	EC50 (CRF2R)	EC50 (CRF1R)
CC[C@H](C)[C@H](NC(=O)[C@@H](NC(=O)[C@H](CC(=O)O)NC(=O)[C@H](CC(C)C)NC(=O)[C@H](CC(C)C)NC(=O)[C@H](CC(C)C)NC(=O)[C@H](CCCNC(=N)N)NC(=O)[C@H](CC(N)=O)NC(=O)[C@H](CC(N)=O)NC(=O)[C@H](C)NC(=O)[C@H](C)NC(=O)[C@H](CCC(N)=O)NC(=O)[C@H](CCC(N)=O)NC(=O)[C@H](CCCCN)NC(=O)[C@H](CCC(=O)O)NC(=O)[C@H](CCCCN)NC(=O)[C@H](CCC(=O)O)NC(=O)[C@H](CCC(N)=O)NC(=O)[C@H](CCCCN)NC(=O)[C@H](CCC(=O)O)NC(=O)[C@@H](NC(=O)[C@H](CCC(=O)O)NC(=O)[C@@H](NC(=O)[C@H](CCSC)NC(=O)[C@H](CCCCN)NC(=O)[C@H](CCCNC(=N)N)NC(=O)[C@H](CC(C)C)NC(=O)[C@H](CC(C)C)NC(=O)[C@H](CO)NC(=O)[C@@H](NC(=O)[C@@H]1CCCN1C(=O)[C@H](CC(C)C)NC(=O)[C@H](CC(=O)O)NC(=O)[C@@H](NC(=O)[C@H](CO)NC(=O)[C@@H](NC(=O)[C@@H]1CCCN1C(=O)[C@@H]1CCCN1C(=O)CNC(=O)[C@@H]1CCC(=O)N1)[C@@H](C)CC)[C@@H](C)CC)[C@@H](C)O)[C@@H](C)CC)[C@@H](C)CC)[C@@H](C)O)C(N)=O [compound 43]	67%	10%	–	–
CC[C@H](C)[C@H](NC(=O)[C@@H](NC(=O)[C@H](CC(=O)O)NC(=O)[C@H](CC(C)C)NC(=O)[C@H](CC(C)C)NC(=O)[C@H](CC(C)C)NC(=O)[C@H](CCCNC(=N)N)NC(=O)[C@H](CC(N)=O)NC(=O)[C@H](CC(N)=O)NC(=O)[C@H](C)NC(=O)[C@H](C)NC(=O)[C@H](CCC(N)=O)NC(=O)[C@H](CCC(N)=O)NC(=O)[C@H](CCCCN)NC(=O)[C@H](CCC(=O)O)NC(=O)[C@H](CCCCN)NC(=O)[C@H](CCC(=O)O)NC(=O)[C@H](CCC(N)=O)NC(=O)[C@H](CCCCN)NC(=O)[C@H](CCC(=O)O)NC(=O)[C@@H](NC(=O)[C@H](CCC(=O)O)NC(=O)[C@@H](NC(=O)[C@H](CCSC)NC(=O)[C@H](CCCCN)NC(=O)[C@H](CCCNC(=N)N)NC(=O)[C@H](CC(C)C)NC(=O)[C@H](CC(C)C)NC(=O)[C@H](CCC(N)=O)NC(=O)[C@H](Cc1c[nH]cn1)NC(=O)[C@@H]1CCCN1C(=O)[C@H](CC(C)C)NC(=O)[C@H](CC(=O)O)NC(=O)[C@@H](NC(=O)[C@H](CO)NC(=O)[C@@H](NC(=O)[C@@H]1CCCN1C(=O)[C@@H]1CCCN1C(=O)CNC(=O)[C@@H]1CCC(=O)N1)[C@@H](C)CC)[C@@H](C)CC)[C@@H](C)CC)[C@@H](C)CC)[C@@H](C)O)C(N)=O [compound 212]	100%	100%	–	–
CC[C@H](C)[C@H](NC(=O)[C@@H](NC(=O)[C@H](CC(=O)O)NC(=O)[C@H](CC(C)C)NC(=O)[C@H](CC(C)C)NC(=O)[C@H](CC(C)C)NC(=O)[C@H](CCCNC(=N)N)NC(=O)[C@H](CC(N)=O)NC(=O)[C@H](CC(N)=O)NC(=O)[C@H](C)NC(=O)[C@H](C)NC(=O)[C@H](CCC(N)=O)NC(=O)[C@H](CCC(N)=O)NC(=O)[C@H](CCCCN)NC(=O)[C@H](CCC(=O)O)NC(=O)[C@H](CCCCN)NC(=O)[C@H](CCC(=O)O)NC(=O)[C@H](CCC(N)=O)NC(=O)[C@H](CCCCN)NC(=O)[C@H](CCC(=O)O)NC(=O)[C@@H](NC(=O)[C@H](CCC(=O)O)NC(=O)[C@@H](NC(=O)[C@H](CCSC)NC(=O)[C@H](CCCCN)NC(=O)[C@H](CCCNC(=N)N)NC(=O)[C@H](CC(C)C)NC(=O)[C@H](CC(C)C)NC(=O)[C@H](Cc1ccc(O)cc1)NC(=O)[C@H](CCC(=O)O)NC(=O)[C@@H]1CCCN1C(=O)[C@H](CC(C)C)NC(=O)[C@H](CC(=O)O)NC(=O)[C@@H](NC(=O)[C@H](CO)NC(=O)[C@@H](NC(=O)[C@@H]1CCCN1C(=O)[C@@H]1CCCN1C(=O)CNC(=O)[C@@H]1CCC(=O)N1)[C@@H](C)CC)[C@@H](C)CC)[C@@H](C)CC)[C@@H](C)CC)[C@@H](C)O)C(N)=O [compound 48]	14%	21%	–	–
CC[C@H](C)[C@H](NC(=O)[C@@H](NC(=O)[C@H](CC(=O)O)NC(=O)[C@H](CC(C)C)NC(=O)[C@H](CC(C)C)NC(=O)[C@H](CC(C)C)NC(=O)[C@H](CCCNC(=N)N)NC(=O)[C@H](CC(N)=O)NC(=O)[C@H](CC(N)=O)NC(=O)[C@H](C)NC(=O)[C@H](C)NC(=O)[C@H](CCC(N)=O)NC(=O)[C@H](CCC(N)=O)NC(=O)[C@H](CCCCN)NC(=O)[C@H](CCC(=O)O)NC(=O)[C@H](CCCCN)NC(=O)[C@H](CCC(=O)O)NC(=O)[C@H](CCC(N)=O)NC(=O)[C@H](CCCCN)NC(=O)[C@H](CCC(=O)O)NC(=O)[C@@H](NC(=O)[C@H](CCC(=O)O)NC(=O)[C@@H](NC(=O)[C@H](CCSC)NC(=O)[C@H](CCCCN)NC(=O)[C@H](CCCNC(=N)N)NC(=O)[C@H](CC(C)C)NC(=O)[C@H](CC(C)C)NC(=O)[C@H](Cc1c[nH]c2ccccc12)NC(=O)[C@@H](NC(=O)[C@@H]1CCCN1C(=O)[C@H](CC(C)C)NC(=O)[C@H](CC(=O)O)NC(=O)[C@@H](NC(=O)[C@H](CO)NC(=O)[C@@H](NC(=O)[C@@H]1CCCN1C(=O)[C@@H]1CCCN1C(=O)CNC(=O)[C@@H]1CCC(=O)N1)[C@@H](C)CC)[C@@H](C)CC)[C@@H](C)O)[C@@H](C)CC)[C@@H](C)CC)[C@@H](C)O)C(N)=O [compound 41]	100%	43%	0.0183 µM	> 1 µM
CC[C@H](C)[C@H](NC(=O)[C@@H](NC(=O)[C@H](CC(=O)O)NC(=O)[C@H](CC(C)C)NC(=O)[C@H](CC(C)C)NC(=O)[C@H](CC(C)C)NC(=O)[C@H](CCCNC(=N)N)NC(=O)[C@H](CC(N)=O)NC(=O)[C@H](CC(N)=O)NC(=O)[C@H](C)NC(=O)[C@H](C)NC(=O)[C@H](CCC(N)=O)NC(=O)[C@H](CCC(N)=O)NC(=O)[C@H](CCCCN)NC(=O)[C@H](CCC(=O)O)NC(=O)[C@H](CCCCN)NC(=O)[C@H](CCC(=O)O)NC(=O)[C@H](CCC(N)=O)NC(=O)[C@H](CCCCN)NC(=O)[C@H](CCC(=O)O)NC(=O)[C@@H](NC(=O)[C@H](CCC(=O)O)NC(=O)[C@@H](NC(=O)[C@H](CCSC)NC(=O)[C@H](CCCCN)NC(=O)[C@H](CCCNC(=N)N)NC(=O)[C@H](CC(C)C)NC(=O)[C@H](CC(C)C)NC(=O)[C@H](CC(C)C)NC(=O)[C@H](Cc1ccccc1)NC(=O)[C@@H]1CCCN1C(=O)[C@H](CC(C)C)NC(=O)[C@H](CC(=O)O)NC(=O)[C@@H](NC(=O)[C@H](CO)NC(=O)[C@@H](NC(=O)[C@@H]1CCCN1C(=O)[C@@H]1CCCN1C(=O)CNC(=O)[C@@H]1CCC(=O)N1)[C@@H](C)CC)[C@@H](C)CC)[C@@H](C)CC)[C@@H](C)CC)[C@@H](C)O)C(N)=O [compound 191]	100%	65%	0.0083 µM	0.0637 µM
CC[C@H](C)[C@H](NC(=O)[C@@H](NC(=O)[C@H](CC(=O)O)NC(=O)[C@H](CC(C)C)NC(=O)[C@H](CC(C)C)NC(=O)[C@H](CC(C)C)NC(=O)[C@H](CCCNC(=N)N)NC(=O)[C@H](CC(N)=O)NC(=O)[C@H](CC(N)=O)NC(=O)[C@H](C)NC(=O)[C@H](C)NC(=O)[C@H](CCC(N)=O)NC(=O)[C@H](CCC(N)=O)NC(=O)[C@H](CCCCN)NC(=O)[C@H](CCC(=O)O)NC(=O)[C@H](CCCCN)NC(=O)[C@H](CCC(=O)O)NC(=O)[C@H](CCC(N)=O)NC(=O)[C@H](CCCCN)NC(=O)[C@H](CCC(=O)O)NC(=O)[C@@H](NC(=O)[C@H](CCC(=O)O)NC(=O)[C@@H](NC(=O)[C@@H](NC(=O)[C@H](CCCCN)NC(=O)[C@H](CCCNC(=N)N)NC(=O)[C@H](CC(C)C)NC(=O)[C@H](CC(C)C)NC(=O)[C@H](CCC(N)=O)NC(=O)[C@H](Cc1ccc(O)cc1)NC(=O)[C@@H]1CCCN1C(=O)[C@H](CC(C)C)NC(=O)[C@H](CC(=O)O)NC(=O)[C@@H](NC(=O)[C@H](CO)NC(=O)[C@@H](NC(=O)[C@@H]1CCCN1C(=O)[C@@H]1CCCN1C(=O)CNC(=O)[C@@H]1CCC(=O)N1)[C@@H](C)CC)[C@@H](C)CC)C(C)C)[C@@H](C)CC)[C@@H](C)CC)[C@@H](C)O)C(N)=O [compound 283]	72%	100%	–	–
